Target: GST-Bcl-2 (Homo sapiens (Human), UniProt P10415)
Test: Time Resolved-Fluorescence Resonance Energy Transfer (TR-FRET) Bcl-2 binding assay
Conditions: not given
Description: Determination of the utility of compounds having Formula (I) as binders to and inhibitors of anti-apoptotic Bcl-2 proteins was performed using the Time Resolved-Fluorescence Resonance Energy Transfer (TR-FRET) Assay. Tb-anti-GST antibody was purchased from Invitrogen (Catalog No. PV4216).
(§1) Representative compounds were serially diluted in dimethyl sulfoxide (DMSO) starting at 50 μM (2× starting concentration; 10% DMSO) and 10 μL were transferred into a 384-well plate. The samples are then mixed on a shaker for 1 minute and incubated for an additional 3 hours at room temperature. For each assay, the probe/antibody and protein/probe/antibody were included on each assay plate as negative and positive controls, respectively. Fluorescence was measured on the Envision (Perkin Elmer) using a 340/35 nm excitation filter and 520/525 (F-Bak peptide) and 495/510 nm (Tb-labeled anti-Histidine antibody) emission filters.
as §1, with “The” for “Representative compounds were serially diluted in dimethyl sulfoxide (DMSO) starting at 50 μM (2× starting concentration; 10% DMSO) and 10 μL were transferred into a 384-well plate. The”, “were” for “are”
The inhibition constant (Ki) is the dissociation constant of an enzyme-inhibitor complex or a protein/small molecule complex, wherein the small molecule is inhibiting binding of one protein to another protein. So a large Ki value indicates a low binding affinity and a small Ki value indicates a high binding affinity.

Protein sequences, listed by entry. Tags and fused reporters are not part of them.
UniProt P10415, whole entry: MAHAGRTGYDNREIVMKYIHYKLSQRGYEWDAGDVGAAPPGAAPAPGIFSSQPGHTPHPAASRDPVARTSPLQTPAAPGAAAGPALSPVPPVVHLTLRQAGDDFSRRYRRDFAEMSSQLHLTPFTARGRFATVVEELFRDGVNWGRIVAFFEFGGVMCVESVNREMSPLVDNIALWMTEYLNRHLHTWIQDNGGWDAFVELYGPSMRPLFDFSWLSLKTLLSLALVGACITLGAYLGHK

SMILES | Ki [nM]
CO[C@H]1CC[C@H](CNc2ccc(S(=O)(=O)NC(=O)c3ccc(N4CCN(CC5=C(c6ccc(Cl)cc6)CC(C)(C)CC5)CC4)cc3Oc3cnc(N)c(Cl)c3)cc2[N+](=O)[O-])CC1 [Example 345, Trans-2-[(6-amino-5-chloropyridin-3-yl)oxy]-4-(4-{[2-(4-chlorophenyl)-4,4-dimethylcyclohex-1-en-1-yl]methyl}piperazin-1-yl)-N-[(4-{[(4-methoxycyclohexyl)methyl]amino}-3-nitrophenyl)sulfonyl]benzamide] | 0.005

Same assay, conditions: GST-Bcl-2 1 nM, F-Bak peptide probe 100 nM, Tb-anti-GST antibody 1 nM; Ki by Wang's equation

SMILES | Ki [nM]
CC1(C)CCC(CN2CCN(c3ccc(C(=O)NS(=O)(=O)c4ccc(NC5CCN(S(C)(=O)=O)CC5)c([N+](=O)[O-])c4)c(Oc4cc5cc[nH]c5cc4F)c3)CC2)=C(c2ccc(Cl)cc2)C1 [Example 319, 4-(4-{[2-(4-chlorophenyl)-4,4-dimethylcyclohex-1-en-1-yl]methyl}piperazin-1-yl)-2-[(6-fluoro-1H-indol-5-yl)oxy]-N-[(4-{[1-(methylsulfonyl)piperidin-4-yl]amino}-3-nitrophenyl)sulfonyl]benzamide] | 0.198
COCCOCCN1CCC(Nc2ccc(S(=O)(=O)NC(=O)c3ccc(N4CCN(CC5=C(c6ccc(Cl)cc6)CC(C)(C)CC5)CC4)cc3Oc3cccc(Cl)c3)cc2[N+](=O)[O-])CC1 [Example 170, 2-(3-chlorophenoxy)-4-(4-{[2-(4-chlorophenyl)-4,4-dimethylcyclohex-1-en-1-yl]methyl}piperazin-1-yl)-N-{[4-({1-[2-(2-methoxyethoxy)ethyl]piperidin-4-yl}amino)-3-nitrophenyl]sulfonyl}benzamide] | 0.036
CC1(C)CCC(CN2CCN(c3ccc(C(=O)NS(=O)(=O)c4ccc(NC5CCN(CC6CC6)CC5)c([N+](=O)[O-])c4)c(Oc4cc5cc[nH]c5c(F)c4F)c3)CC2)=C(c2ccc(Cl)cc2)C1 [Example 237, 4-(4-{[2-(4-chlorophenyl)-4,4-dimethylcyclohex-1-en-1-yl]methyl}piperazin-1-yl)-N-[(4-{[1-(cyclopropylmethyl)piperidin-4-yl]amino}-3-nitrophenyl)sulfonyl]-2-[(6,7-difluoro-1H-indol-5-yl)oxy]benzamide] | 0.197
CN1CCN(Nc2ccc(S(=O)(=O)NC(=O)c3ccc(N4CCN(CC5=C(c6ccc(Cl)cc6)CC(C)(C)CC5)CC4)cc3Oc3cccc4[nH]cc(Cl)c34)cc2[N+](=O)[O-])CC1 [Example 286, 2-[(3-chloro-1H-indol-4-yl)oxy]-4-(4-{[2-(4-chlorophenyl)-4,4-dimethylcyclohex-1-en-1-yl]methyl}piperazin-1-yl)-N-({4-[(4-methylpiperazin-1-yl)amino]-3-nitrophenyl}sulfonyl)benzamide] | 3.18
CC1(C)CCC(CN2CCN(c3ccc(C(=O)NS(=O)(=O)c4ccc(NC5CCN(C6CCOCC6)CC5)c([N+](=O)[O-])c4)c(Oc4c(F)cccc4Cl)c3)CC2)=C(c2ccc(Cl)cc2)C1 [Example 152, 2-(2-chloro-6-fluorophenoxy)-4-(4-{[2-(4-chlorophenyl)-4,4-dimethylcyclohex-1-en-1-yl]methyl}piperazin-1-yl)-N-({3-nitro-4-[(1-tetrahydro-2H-pyran-4-ylpiperidin-4-yl)amino]phenyl}sulfonyl)benzamide] | 18.6
CC1(C)CCC(CN2CCN(c3ccc(C(=O)NS(=O)(=O)c4ccc(NCCCN5CCNC(=O)C5)c([N+](=O)[O-])c4)c(Oc4cc5cc[nH]c5c(F)c4F)c3)CC2)=C(c2ccc(Cl)cc2)C1 [Example 239, 4-(4-{[2-(4-chlorophenyl)-4,4-dimethylcyclohex-1-en-1-yl]methyl}piperazin-1-yl)-2-[(6,7-difluoro-1H-indol-5-yl)oxy]-N-[(3-nitro-4-{[3-(3-oxopiperazin-1-yl)propyl]amino}phenyl)sulfonyl]benzamide] | 0.105
O=C(NS(=O)(=O)c1ccc(NCCCN2CCOCC2)c([N+](=O)[O-])c1)c1ccc(N2CCN(Cc3ccccc3-c3ccc(Cl)cc3)CC2)cc1Oc1ccccc1Cl [Example 10, 4-(4-((4′-chloro-1,1′-biphenyl-2-yl)methyl)piperazin-1-yl)-2-(2-chlorophenoxy)-N-((4-((3-morpholin-4-ylpropyl)amino)-3-nitrophenyl)sulfonyl)benzamide] | 0.72
CC(C1=C(c2ccc(Cl)cc2)CC(C)(C)CC1)N1CCN(c2ccc(C(=O)NS(=O)(=O)c3ccc(NCC4CCOCC4)c([N+](=O)[O-])c3)c(Oc3cc4cc[nH]c4cc3F)c2)CC1 (stereo not shown) [Example 256, 4-(4-{1-[2-(4-chlorophenyl)-4,4-dimethylcyclohex-1-en-1-yl]ethyl}piperazin-1-yl)-2-[(6-fluoro-1H-indol-5-yl)oxy]-N-({3-nitro-4-[(tetrahydro-2H-pyran-4-ylmethyl)amino]phenyl}sulfonyl)benzamide] | 0.105
CCNCc1ccc(Oc2cc(N3CCN(Cc4ccccc4-c4ccc(Cl)cc4)CC3)ccc2C(=O)NS(=O)(=O)c2ccc(NCC3CCOCC3)c([N+](=O)[O-])c2)cc1 [Example 80, 4-(4-((4′-chloro-1,1′-biphenyl-2-yl)methyl)piperazin-1-yl)-2-(4-((ethylamino)methyl)phenoxy)-N-((3-nitro-4-((tetrahydro-2H-pyran-4-ylmethyl)amino)phenyl)sulfonyl)benzamide] | 149
